{
  "source": "paper PMC3223731",
  "about": "“Environment sensing and response mediated by ABC transporters” (BMC Genomics, 2011)",
  "molecular_target": "T1, RPA3790 (Rhodopseudomonas palustris, UniProt Q6N3A4)",
  "T1 construct": "gene TX73_019620; signal peptide or N-terminal TM helix removed; N-terminal 6xHis-TEV tag retained; E. coli",
  "T1 sequence (Q6N3A4 23-267)": "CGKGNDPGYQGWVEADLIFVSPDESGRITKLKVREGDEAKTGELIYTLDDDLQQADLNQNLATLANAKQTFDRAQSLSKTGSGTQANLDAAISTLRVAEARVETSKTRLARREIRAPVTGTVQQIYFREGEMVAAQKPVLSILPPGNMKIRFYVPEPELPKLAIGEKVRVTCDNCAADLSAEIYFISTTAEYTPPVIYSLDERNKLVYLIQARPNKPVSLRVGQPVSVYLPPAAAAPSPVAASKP",
  "experiment": "fluorescence thermal shift (SYPRO orange)",
  "type": "binding",
  "settings": "100x ligand over protein (5 or 10 µM protein); 100 mM HEPES, 150 mM NaCl, pH 7.5",
  "data": [
    {"smiles": "O=C(O)c1ccccc1O", "note": "[salicylic acid]", "values": [
      {"measurement": "ΔTm", "value": "interaction such as that of salicylic acid with proteins RPA0668, RPA0985 and RPA3790"}
    ]}
  ]
}
